## Yeast mating assay 2: variants of the scFv Ab-95

Target: peptide PDVDLGDISGINAS, taken from heptad repeat 2 (HR2) of SARS-CoV-2 spike.

Each scFv is VH, the linker GGGGSGGGGSGGGGS, VL, as in the parent Ab-95, and differs from it in the CDRs of the light chain only.
VH: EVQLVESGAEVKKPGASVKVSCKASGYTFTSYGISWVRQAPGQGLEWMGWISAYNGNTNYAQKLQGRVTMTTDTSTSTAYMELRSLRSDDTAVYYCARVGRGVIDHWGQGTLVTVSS
VL: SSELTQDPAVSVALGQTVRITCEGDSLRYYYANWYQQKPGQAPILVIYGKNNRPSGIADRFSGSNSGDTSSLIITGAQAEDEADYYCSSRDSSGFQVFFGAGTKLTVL

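The starting antibody came from a phage panning campaign against this peptide. In library AAYL52, one, two or three CDR residues were substituted; doubles and triples were drawn at random. Affinity was read by AlphaSeq, a pooled yeast mating assay with surface-displayed partners. Mating (16 h, 30 °C) was followed by selection of diploids and sequencing of their barcodes. A regression on co-assayed BCL2-family reference pairs converts the normalised counts of each replicate to an apparent Kd. The assay was run in three technical replicates.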

Changes read parent residue, position, new residue, counted from the first residue of the VL shown.
Each Kd is an estimate from the mating assay, the geometric mean of the replicates in which the pair was seen; lower is stronger.
"no signal" means that the variant was in the library but no mating with the target was seen in any replicate; the authors take this as a sign of poor binding, and no number exists.

changes	Kd (apparent)	seen in	control signals
P54G Q96T	800 nM	3 of 3	1 of 9
N51A R90Y F95W	71 µM	1 of 3	4 of 9
N52Y S55P S92I	8.8 µM	2 of 3	1 of 9
D25L S88W F98P	2.5 µM	1 of 3	2 of 9
Y31F A32G S88K	180 µM	1 of 3	3 of 9
N33E S89L S92F	59 µM	1 of 3	3 of 9
D25E N52K Q96N	520 nM	3 of 3	3 of 9
L27T V97D	3.0 µM	2 of 3	3 of 9
N33M S88L	4.2 µM	3 of 3	4 of 9
S55Y F95T V97M	300 µM	1 of 3	2 of 9
S26I Y31D A32W	440 µM	2 of 3	3 of 9
L27W G49K S92N	2.8 µM	2 of 3	1 of 9
G24C S93D F98D	250 nM	3 of 3	3 of 9
L27P R90P	1.5 µM	1 of 3	3 of 9
D25W Y30K F98I	360 nM	3 of 3	1 of 9
L27I N51D	330 nM	3 of 3	3 of 9
S26F Y30A N33C	9.2 µM	3 of 3	3 of 9
P54G S89T V97T	18 µM	1 of 3	3 of 9
Y31E R90G F95K	20 µM	2 of 3	2 of 9
D25P R53Y S92W	8.9 µM	3 of 3	4 of 9
D25I N52V F95V	2.8 µM	3 of 3	3 of 9
D25P A32D F95S	5.7 µM	3 of 3	4 of 9
S88W R90A	490 nM	3 of 3	0 of 9
R53H S55K V97S	6.9 µM	2 of 3	3 of 9
E23L L27R N52K	130 µM	3 of 3	3 of 9
E23D D91P	190 nM	3 of 3	1 of 9
E23M Y29F A32K	300 nM	3 of 3	4 of 9
G24I S89G F98T	38 nM	3 of 3	4 of 9
R53L S92T G94Q	1.1 µM	1 of 3	2 of 9
A32G S89H D91T	210 µM	1 of 3	0 of 9
E23A K50T F95G	3.5 µM	3 of 3	4 of 9
G24D Y31S G94M	1.5 µM	3 of 3	1 of 9
G49H P54G S93N	1.1 µM	1 of 3	3 of 9
Y31I S55M S88D	650 µM	2 of 3	3 of 9
N33L G49D R53E	1.9 µM	1 of 3	0 of 9
K50L R53F R90V	13 µM	2 of 3	4 of 9
R53H S89H R90Q	6.7 µM	2 of 3	4 of 9
R28L N51F F95N	10 µM	3 of 3	3 of 9
K50L P54H Q96C	2.7 µM	1 of 3	1 of 9
K50T N52G F95Q	6.2 µM	2 of 3	5 of 9
E23T A32L S88E	7.6 µM	3 of 3	3 of 9
Y31I R53A S88N	56 µM	1 of 3	3 of 9
D25F L27R Y31S	2.6 µM	3 of 3	4 of 9
S55I S92C S93R	5.0 µM	3 of 3	4 of 9
R28D Y29Q A32S	440 nM	3 of 3	6 of 9
G24L R53K Q96Y	5.3 µM	2 of 3	3 of 9
G24V Y30T G49F	no signal	0 of 3	1 of 9
S26D S93N	1.0 µM	3 of 3	4 of 9
R28K R90C S93N	no signal	0 of 3	3 of 9
S26G S93E F95G	no signal	0 of 3	0 of 9

Repeated from above, the 7 best binders with a signal in all replicates:

{"changes": "G24I S89G F98T", "Kd (apparent)": "38 nM", "seen in": "3 of 3", "control signals": "4 of 9"}
{"changes": "E23D D91P", "Kd (apparent)": "190 nM", "seen in": "3 of 3", "control signals": "1 of 9"}
{"changes": "G24C S93D F98D", "Kd (apparent)": "250 nM", "seen in": "3 of 3", "control signals": "3 of 9"}
{"changes": "E23M Y29F A32K", "Kd (apparent)": "300 nM", "seen in": "3 of 3", "control signals": "4 of 9"}
{"changes": "L27I N51D", "Kd (apparent)": "330 nM", "seen in": "3 of 3", "control signals": "3 of 9"}
{"changes": "D25W Y30K F98I", "Kd (apparent)": "360 nM", "seen in": "3 of 3", "control signals": "1 of 9"}
{"changes": "R28D Y29Q A32S", "Kd (apparent)": "440 nM", "seen in": "3 of 3", "control signals": "6 of 9"}

Parent in this assay: reference entry 200 nM, copy in this library 180 nM.
As a blank, each scFv also met three strains without target: over library AAYL52, 28% of these pairings were detected, typically at 8.2 µM and seldom below 800 nM. For each scFv, signals with the empty controls are counted beside the result.

Values reported by Engelhart et al. 2022, doi:10.1038/s41597-022-01779-4 (FLAb copy).